scFv variants of Ab-14 (light chain) against a SARS-CoV-2 spike peptide

Values reported by Li et al. 2023, doi:10.1038/s41467-023-39022-2 (FLAb copy).

Binding partner: SARS-CoV-2 spike HR2 peptide, sequence PDVDLGDISGINAS.

Parent scFv Ab-14: VH joined to VL by the linker GGGGSGGGGSGGGGS. Changes lie in the light chain CDRs alone.
VH: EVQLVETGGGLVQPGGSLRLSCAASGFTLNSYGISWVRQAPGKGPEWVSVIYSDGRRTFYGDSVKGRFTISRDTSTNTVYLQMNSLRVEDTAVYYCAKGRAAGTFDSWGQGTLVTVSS
VL: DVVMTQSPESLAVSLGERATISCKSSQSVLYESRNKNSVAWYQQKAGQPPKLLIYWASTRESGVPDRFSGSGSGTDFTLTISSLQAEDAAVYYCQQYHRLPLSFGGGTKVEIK

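The variants were designed computationally from a first round of random CDR variants and then made and measured. Their group label is 14L_GP_HC (GP: Gaussian process model; HC: hill climbing; a sequence that several methods proposed may carry one label only). In AlphaSeq, yeast of one mating type display the scFv and yeast of the other type display the target. After mating in shaken culture at 30 °C for 16 h, diploids were selected and their barcode pairs sequenced. Read counts were normalised to the haploid input and turned into Kd by a linear fit to BCL2-family pairs of known affinity, for each replicate. Each pool was mated in six replicate cultures.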

Positions count from residue 1 of the parent VL; S25Y puts Y in place of S.
Numbers give log10(Kd / nM), so 0 is 1 nM and 3 is 1 µM. Smaller is tighter.
An entry "nd" has no value in the source: the pair was not observed among the diploids in that replicate. This suggests poor binding but is not conclusive.
Of ten entries with the parent sequence, four were seen in most replicates (averages 0.34 to 2.37), three in one and three in none, so single entries are noisy.

changes	log10 Kd, replicates	empty controls
S25Y/S26Y/Q27P/V29Y/W56G	0.18 0.23 -0.09 0.13 -0.15 0.25	0/18
S26L/Q27W/R34E/W56H/S62D	0.82 0.69 0.53 0.67 0.54 0.76	0/18
S25M/Y31M/S33W/W56D	-0.13 -0.29 -0.40 -0.29 -0.37 -0.16	2/18 (2.55)
V29W/W56G/S62M	-0.29 -0.10 -0.15 -0.25 -0.25 -0.16	1/18 (2.29)
S25L/S26R/S28E/V29T/K36P/W56G	0.04 -0.16 -0.27 -0.16 -0.17 0.11	2/18 (2.29)
Y31F/S33E/W56D	0.57 0.14 0.10 0.12 0.31 0.54	0/18
S25V/S26E/S28G/W56G	-0.17 0.24 -0.15 -0.28 -0.23 -0.16	1/18 (2.08)
S25L/S26R/S28Q/V29T/S62E	0.87 1.33 1.18 -0.06 0.77 0.45	0/18
S25T/S33W/W56D	0.46 0.72 0.74 -0.07 0.36 0.41	0/18
K24H/S25Q/Q27I/W56N/A57G/S62V	0.21 0.23 0.14 0.07 0.30 0.34	2/18 (2.30)
Q27I/V29K/R34M/W56N/A57G	0.27 0.19 -0.21 -0.11 0.00 0.07	1/18 (2.92)
S25M/S26E/S28G/N37G/W56E/T59V	0.40 0.28 0.25 0.11 0.22 0.42	0/18
S25L/S26R/V29M/W56Q/S103T	0.52 0.14 0.14 0.13 0.09 0.55	0/18
K24H/L30D/W56D	-0.06 -0.06 0.00 -0.02 -0.25 0.19	0/18
S25Q/S28E/V29K/K36S/W56D	-0.05 -0.21 -0.31 -0.45 -0.33 -0.18	0/18
K24H/Q27P/V29Y/S38N/W56N	-0.07 -0.29 -0.19 -0.19 -0.35 -0.08	1/18 (2.14)
S25L/V29W/S33D/N35V/W56N	0.68 0.12 0.81 0.45 0.57 0.71	1/18 (2.79)
S25F/Q27G/N35T/W56N	0.21 -0.43 -0.56 -0.46 -0.61 -0.39	0/18
S25L/S28V/V29Q/W56G	0.35 -0.03 0.41 0.33 0.00 0.42	2/18 (3.10)
S25C/V29E/Y31F/W56D	-0.30 -0.43 -0.57 -0.39 -0.48 -0.28	2/18 (3.16)
S25F/N35T/S38G/W56E	0.09 0.04 -0.07 -0.22 -0.17 -0.05	0/18
Q27I/V29K/W56E/S62Q	0.23 0.21 0.31 0.30 0.14 -0.03	1/18 (4.06)
S26Q/V29Q/W56N/S62D	0.12 -0.21 -0.37 -0.14 -0.11 -0.07	0/18
K24H/S25L/Q27P/K36G/W56N	-0.04 -0.10 -0.20 -0.24 -0.05 0.04	4/18 (2.46)
S25L/S26V/Q27N/V29T/N35Q/W56S	0.71 0.46 0.96 1.05 0.76 1.04	1/18 (3.52)
V29W/W56G/S62N/S103M	-0.36 -0.38 -0.35 -0.45 -0.57 -0.38	3/18 (3.66)
S25L/S26M/W56H/T59L	0.74 0.55 0.41 0.55 0.64 0.87	0/18
S25T/S26P/S28G/W56S/T59V	0.01 -0.11 -0.38 -0.30 -0.32 -0.03	2/18 (2.74)
S25V/Q27P/N35T/W56N	-0.09 -0.35 -0.33 -0.48 -0.27 -0.20	1/18 (3.81)
S25V/Q27D/Y31L/N35T/W56N	0.67 1.21 0.42 0.61 0.45 0.93	1/18 (2.49)
S26L/S28G/N35D/W56H/S62D	0.69 0.60 0.25 0.61 0.68 0.54	2/18 (3.16)
Q27I/V29Y/R34E/N37H/W56E/T59Q	0.45 0.48 0.02 0.17 0.40 0.43	1/18 (2.46)
S25I/V29D/W56D	-0.20 -0.35 -0.37 -0.47 -0.50 -0.27	0/18
S25F/S28K/S33D/N35T/W56N	0.26 0.16 0.23 0.08 0.08 0.23	0/18
S25Q/Y31M/K36S/W56D	0.22 0.10 -0.05 -0.07 -0.12 0.35	1/18 (2.21)
S25L/S26R/V29T/L30M/K36Q	nd 2.58 nd nd 2.03 2.89	0/18
S25V/S28C/W56M	1.08 0.71 0.82 1.26 0.80 1.92	0/18
S25T/S26G/S28G/W56G/T59L	0.03 0.02 0.09 -0.16 -0.14 0.06	3/18 (3.11)

The range of this assay differs from that of the first round, and the authors advise against merging the two.
Background: pairings of all light chain designs with three empty control strains gave a value in 4% of cases (median 2.64, 5th percentile 1.59). Values in that range, when seen in few replicates, are hard to tell from nonspecific mating. The control count says in how many pairings with the empty strains this scFv gave a signal, with their mean in brackets.
The authors' rule: three or more of the six replicates give a measured affinity, fewer mean a poor binder.